# Measured values from patent publication US12655398B2, “Multipartite luciferase” (Promega Corporation, priority 2018, dated 2026).
# System: LgTrip 3546 and SmTrip10 pep86
# Assay: SmTrip9 peptide titration (Kd, Bmax) with LgTrip 3546 and constant SmTrip10 peptide
# Format: binding
# Settings: constant SmTrip10 pep86, LgTrip 3546
# Description: (§1) LgTrip 3546 (SEQ ID NO: 51) was diluted to 200 nM in TBS+0.01% BSA+0.01% Tergitol, and serial dilutions were prepared (100 ul into 900 ul) in TBS+0.01% BSA+0.01% Tergitol. 2 nM polypeptide samples were diluted 1:10 into TBS+0.01% BSA+0.01% Tergitol (500 into 4.5 ml).
# A 2× dilution series was prepared of each SmTrip9 peptide in TBS+0.01% BSA+0.01% Tergitol+100 uM of SmTrip10 pep86 (SEQ ID NO: 25) starting at 20 uM. 50 ul of diluted LgTrip 3546 (SEQ ID NO: 51) was combined with 50 ul of each peptide titration. Reactions were incubated for 10 minutes at room temperature. 100 μl of TBS+0.01% BSA+0.01% Tergitol+20 uM furimazine was added, the reaction was incubated for 10 more minutes, and read on a GMM+.
# Experiments were conducted during development of embodiments herein to determine the how the affinity of β9-like (e.g., SmTrip9) peptides are impacted in the presence of constant concentrations of various β10-like (e.g., SmTrip10) peptides with LgTrip 3546 (SEQ ID NO: 51) (FIG. 29). […] The reactions were incubated for 10 minutes at room temperature, 100 μl of TBS+0.01% BSA+0.01% Tergitol+20 uM furimazine was added, and the reactions were incubated for another 10 minutes and then read on GMM+. […]
row,Sequence,Affinity of SmTrip9 peptide compared to SmTrip9 pep286
1,DGSMLFRVTINS [SmTrip9 pep293],decrease in affinity compared to SmTrip9 pep286
2,PDGSMLFRVTINS [SmTrip9 pep294],decrease in affinity compared to SmTrip9 pep286

# System: LgTrip 3546
# Assay: SmTrip10 pep86 (HiBiT) titration with constant SmTrip9 peptides
# Format: binding
# Settings: SmTrip10 pep86 titration with saturating SmTrip9 variant
# Description: as §1
# A 2× dilution series was prepared of SmTrip10 pep86 (SEQ ID NO: 25) in TBS+0.01% BSA+0.01% Tergitol+20 uM of SmTrip9-like peptides starting at 100 uM. 50 ul of diluted LgTrip 3546 was combined with 50 ul of each peptide titration. Reactions were incubated for 10 minutes at room temperature. 100 μl of TBS+0.01% BSA+0.01% Tergitol+20 uM furimazine was added, reaction was incubated for 10 more minutes, and then read on GMM+.
# LgTrip 3546 (SEQ ID NO: 51) polypeptide was diluted to 0.2 nM in TBS+0.01% BSA+0.01% Tergitol. 20 uM SmTrip9-like peptide solutions were prepared in TBS+0.01% BSA+0.01% Tergitol for each SmTrip9-like peptide to be tested. 100 uM solutions of SmTrip10 pep86 was added to each SmTrip9-like peptide solution. 2× serial dilutions were prepared of SmTrip10 pep86 using each SmTrip9-like peptide solution as a diluent. Peptide dilutions and LgTrip 3546 solution were combined, 1:1, and incubated for 10 minutes. TBS+0.01% BSA+0.01% Tergitol+20 uM furimazine detection reagent was added (1:1), and luminescence was detected.
# LgTrip 3546 (SEQ ID NO: 51) polypeptide was diluted to 0.2 nM in TBS+0.01% BSA+0.01% Tergitol. 20 uM SmTrip9-like peptide solutions were prepared in TBS+0.01% BSA+0.01% Tergitol for SmTrip9-like peptide to be tested. 100 uM solutions of SmTrip10 pep86 (SEQ ID NO: 25) was added each SmTrip9-like solution. 2× serial dilutions were prepared of SmTrip10 pep86 using each SmTrip9-like peptide solution as a diluent. Peptide dilutions and LgTrip 3546 solution were combined 1:1 and incubated for 10 minutes. TBS+0.01% BSA+0.01% Tergitol+20 uM furimazine detection reagent was added (1:1), and luminescence was detected.
# LgTrip 3546 (SEQ ID NO: 51) was diluted to 0.2 nM in TBS+0.01% BSA+0.01% Tergitol. 20 uM SmTrip9-like peptide solutions were prepared in TBS+0.01% BSA+0.01% Tergitol. SmTrip10 pep86 was added to 100 uM in each SmTrip9-like peptide solution. 2× serial dilutions of each SmTrip 10 pep86 (SEQ ID NO: 25) were prepared using the SmTrip9-like peptide solutions as a diluent. Peptide dilutions were combined with LgTrip 3546 (SEQ ID NO: 51) solution 1:1 and incubated for 10 minutes. TBS+0.01% BSA+0.01% Tergitol+20 uM Furimazine (Fz) detection reagent was added, 1:1. Luminescence was read at 10 min.
row,Sequence,Effect of SmTrip9 peptide on affinity of SmTrip10 pep86 for LgTrip 3546
1,DGSMLFRVTINS [SmTrip9 pep293],decrease affinity of SmTrip10 pep86
2,DGSMLFRVTINSV [SmTrip9 pep298],decrease the affinity of SmTrip10 pep86
3,PDGSMLFRVTINSV [SmTrip9 pep299],decrease the affinity of SmTrip10 pep86
4,PDGSMLFRVTINS [SmTrip9 pep294],decrease affinity of SmTrip10 pep86
